By UniProt entry, the sequences of proteins in these tests, tags left out. Residues count along the entry.
UniProt P51681, whole entry: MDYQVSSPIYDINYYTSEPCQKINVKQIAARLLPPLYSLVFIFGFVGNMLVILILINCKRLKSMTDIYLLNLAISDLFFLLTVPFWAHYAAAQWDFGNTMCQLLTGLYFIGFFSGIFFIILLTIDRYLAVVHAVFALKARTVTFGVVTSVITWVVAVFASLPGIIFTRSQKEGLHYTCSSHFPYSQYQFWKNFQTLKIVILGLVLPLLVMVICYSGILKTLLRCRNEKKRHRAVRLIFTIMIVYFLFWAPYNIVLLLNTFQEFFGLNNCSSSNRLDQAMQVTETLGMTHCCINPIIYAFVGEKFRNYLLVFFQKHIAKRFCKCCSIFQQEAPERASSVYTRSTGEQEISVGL
UniProt P25025, whole entry: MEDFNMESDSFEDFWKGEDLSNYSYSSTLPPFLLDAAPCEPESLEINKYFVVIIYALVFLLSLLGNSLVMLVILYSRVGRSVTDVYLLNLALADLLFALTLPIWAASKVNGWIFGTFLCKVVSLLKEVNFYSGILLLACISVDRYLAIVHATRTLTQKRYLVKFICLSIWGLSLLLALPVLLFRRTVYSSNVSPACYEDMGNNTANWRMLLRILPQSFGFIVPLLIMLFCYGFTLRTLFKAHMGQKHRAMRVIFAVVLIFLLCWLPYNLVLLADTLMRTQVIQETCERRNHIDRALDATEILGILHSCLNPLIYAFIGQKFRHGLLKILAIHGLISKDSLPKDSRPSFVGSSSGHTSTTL
UniProt P32248, 25-378: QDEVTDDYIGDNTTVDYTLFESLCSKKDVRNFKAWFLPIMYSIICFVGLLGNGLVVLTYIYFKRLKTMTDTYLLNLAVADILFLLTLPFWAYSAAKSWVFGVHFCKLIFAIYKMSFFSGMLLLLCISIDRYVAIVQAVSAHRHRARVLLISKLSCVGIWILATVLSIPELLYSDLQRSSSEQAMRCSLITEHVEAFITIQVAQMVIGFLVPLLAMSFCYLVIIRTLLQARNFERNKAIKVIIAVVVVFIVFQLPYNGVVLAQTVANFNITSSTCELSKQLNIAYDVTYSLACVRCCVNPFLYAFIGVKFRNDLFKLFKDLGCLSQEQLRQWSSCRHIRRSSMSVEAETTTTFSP

In patent US20090305321A1, “Assays for Allosteric Modulators of G-Protein Coupled Receptors (GPCRs)” (ASTRAZENECA AB, priority 2005, published 2009):

Columns and labels:
[1] = target: T1, CX3CR1 (Homo sapiens, UniProt P49238); assay: biochemical
T1 sequence (P49238 1-355): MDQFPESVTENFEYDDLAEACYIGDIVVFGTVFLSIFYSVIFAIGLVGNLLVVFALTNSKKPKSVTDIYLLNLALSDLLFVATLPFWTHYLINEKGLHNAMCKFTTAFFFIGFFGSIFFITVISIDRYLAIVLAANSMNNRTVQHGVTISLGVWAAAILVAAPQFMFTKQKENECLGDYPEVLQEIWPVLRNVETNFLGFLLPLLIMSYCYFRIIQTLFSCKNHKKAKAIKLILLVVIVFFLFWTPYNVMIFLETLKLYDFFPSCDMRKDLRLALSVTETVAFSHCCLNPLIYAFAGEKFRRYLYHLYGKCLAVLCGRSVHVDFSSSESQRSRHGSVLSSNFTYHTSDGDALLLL

[2] = target: CCR5 (Homo sapiens, UniProt P51681); assay: Chemokine receptor panel (assays similar to Example 1 and 2), CCR5; type: binding; details: read-out: Inhibition at 10 uM
Protocol: (§1) Membranes (80 μL of 1×10^6 cell equivalents/mL) were then added, giving a total incubation volume of 100 μL per well. The plates were incubated for 2 hours at room temperature.
(§2) HEK 293 transfectants were seeded at 5×10^4 cells per well in 96 well poly-D lysine coated black with clear bottom plates (Becton Dickinson) and cultured for 16 h at 37° C. with an atmosphere of 5% CO2/95% air to form confluent monolayers. The following day cells were loaded with 5 μM Flura 3 AM diluted in tyrodes solution (137 mM NaCl, 10 mM HEPES, 0.441 mM KH2PO4, 2.67 mM KCl, 1.8 mM CaCL2, 1 mM MgCl2) with 6.25 mM probenecid at pH7.4, 100 μl per well and incubated at 37° C. with an atmosphere of 5% CO2/95% air for 1 h. After which the loading media was removed and the cells washed twice with PBS/HEPES solution (100 μl per well) then overlayed with 50 μl assay buffer (tyrodes buffer without probenecid). 50 μl inhibitor compound or 50 μl 0.2% (v/v) DMSO carrier diluted in assay buffer was then added per well and incubated for 30 minutes at room temperature before the addition of 50 μl 3 mM Carbachol per well. Calcium flux responses were measured using a Fluorometric Imaging Plate Reader (Molecular Devices) for 3 minutes before the addition of either IL-8 (50 μl, 1×10^−7-3×10^−11 M final concentration) or GROalpha. […] Fluorescence readings were taken every 2 seconds for a total run time of 6 minutes.

[3] = target: T2, CCR1 (Homo sapiens, UniProt P32246); assay: Chemokine receptor panel (assays similar to Example 1 and 2), CCR1; type: binding; details: read-out: Inhibition at 10 uM
T2 sequence (P32246 1-355): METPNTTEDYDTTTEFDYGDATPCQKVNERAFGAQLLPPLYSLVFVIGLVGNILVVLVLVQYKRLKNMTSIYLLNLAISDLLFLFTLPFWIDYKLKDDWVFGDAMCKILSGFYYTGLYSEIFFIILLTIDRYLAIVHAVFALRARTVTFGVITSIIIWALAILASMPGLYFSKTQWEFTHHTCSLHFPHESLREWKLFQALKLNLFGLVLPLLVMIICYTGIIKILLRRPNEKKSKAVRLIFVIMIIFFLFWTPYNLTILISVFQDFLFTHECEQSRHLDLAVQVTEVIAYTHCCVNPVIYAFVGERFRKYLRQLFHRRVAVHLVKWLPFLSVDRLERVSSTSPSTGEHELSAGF

[4] = target: T3, CCR2b (Homo sapiens, UniProt P41597); assay: Chemokine receptor panel (assays similar to Example 1 and 2), CCR2b; type: binding
T3 sequence (P41597 1-360 isoform P41597-2): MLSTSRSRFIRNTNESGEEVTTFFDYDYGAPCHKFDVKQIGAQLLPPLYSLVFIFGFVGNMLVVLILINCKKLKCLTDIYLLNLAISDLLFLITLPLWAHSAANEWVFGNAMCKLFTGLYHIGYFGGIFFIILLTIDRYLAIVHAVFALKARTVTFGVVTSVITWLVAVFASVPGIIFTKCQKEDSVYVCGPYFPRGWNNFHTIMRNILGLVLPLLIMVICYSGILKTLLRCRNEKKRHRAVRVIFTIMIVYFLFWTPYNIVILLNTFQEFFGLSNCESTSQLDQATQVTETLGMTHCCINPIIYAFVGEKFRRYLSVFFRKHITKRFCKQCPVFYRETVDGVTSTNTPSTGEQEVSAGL

[5] = target: T4, CCR4 (Homo sapiens, UniProt P51679); assay: Chemokine receptor panel (assays similar to Example 1 and 2), CCR4; type: binding
T4 sequence (P51679 1-360): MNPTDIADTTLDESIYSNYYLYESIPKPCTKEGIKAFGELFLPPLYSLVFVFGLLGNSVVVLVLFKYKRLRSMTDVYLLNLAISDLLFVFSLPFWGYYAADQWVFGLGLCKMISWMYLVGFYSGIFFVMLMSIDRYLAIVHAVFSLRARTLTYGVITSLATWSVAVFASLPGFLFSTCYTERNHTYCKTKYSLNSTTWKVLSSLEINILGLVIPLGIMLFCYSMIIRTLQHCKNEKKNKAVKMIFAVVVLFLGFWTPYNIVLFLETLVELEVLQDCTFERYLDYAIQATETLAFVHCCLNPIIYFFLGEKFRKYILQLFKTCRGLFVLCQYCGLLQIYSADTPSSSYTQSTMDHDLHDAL
Protocol: as §1, §2

[6] = target: CXCR2 (Homo sapiens, UniProt P25025); assay: biochemical
Protocol: as §1, §2

[7] = target: CCR7 (Homo sapiens, UniProt P32248); assay: biochemical
Protocol: as §1, §2

Structure (SMILES): CC[C@H](CO)Nc1nc(SCc2ccccc2)nc2[nH]c(=O)sc12 [Compound F]
- IC50 [1]: 1 µM
- inhibition at 10 µM [2]: 100%
- inhibition at 10 µM [3]: 46%
- IC50 [4]: 0.398 µM
- IC50 [5]: 3.98 µM
- IC50 [6]: 0.02 µM
- IC50 [7]: 2 µM
